In patent US10961222B2, “Chemical compound of isocitrate dehydrogenase inhibitor, and application thereof” (NANJING SANHOME PHARMACEUTICAL CO., LTD., priority 2016, dated 2021):

Test system: U87-MG (IDH2-R140Q) subcutaneous xenograft tumor
Experiment: Subcutaneous xenograft tumor caused by U87-MG (IDH2-R140Q) mutant cells in vivo: intratumor 2-HG
Design: species or system BALB/c nude mice
Conditions: 6.25 mg/kg, intragastric, mean, relative to U87-MG (IDH2-R140Q) control group
From the text: 1.2 Animals: BALB/c nude mice, 6-7 weeks old, female, 18-22 g, purchased from Nanjing Jinlaichang Company.
U87-MG (IDH2-R140Q) cells and U87-MG cells (wild type) were expanded, and cells in logarithmic growth phase were used for tumor inoculation in vivo. 16 mice were inoculated subcutaneously into the right lower back of the body at an amount of 2×10^6 cells/mouse (the volume ratio of cell suspension to Matrigel was 1:0.8).
The non-mutation control group was nude mice inoculated with U87-MG cells, and the test compound groups and vehicle control group were nude mice inoculated with U87-MG (IDH2-R140Q) cells.
Each group was intragastrically administered with a corresponding concentration of the compound solution, the administration volume was 100 μL/10 g body weight, and the control group was administered the same volume of blank vehicle.
After 10 days of administration, the mice were sacrificed. The tumors were exfoliated, homogenized, and the 2-HG content in the tumor was examined.
The 2-HG concentration in the homogenate of each animal tumor in each group was determined by LC-MS/MS. The percentage (2-HG %) was calculated; the calculation formula is as follows 2-HG %=(2-HG concentration of administration group tumor−2-HG concentration of U87-MG control group tumor)/(2-HG concentration of U87−MG(IDH2-R140Q) control group tumor−2-HG concentration of U87-MG control group tumor)×100%.

Row | Compound | Intratumor 2-HG(%) after 10 days of administration [%]
1 | O[C@]1(C(F)(F)F)CCN(c2nc(Nc3ccnc(C(F)(F)F)c3)nc(-c3cccc(C(F)(F)F)n3)n2)C1 [Example 22A, (R)-4-(3-trifluoromethyl-3-hydroxypyrrolidin-1-yl)-6-(6-(trifluoromethyl)pyridin-2-yl)-N-(2-(trifluoromethyl)pyridin-4-yl)-1,3,5-triazin-2-amine] | 31
2 | O[C@@]1(C(F)(F)F)CCN(c2nc(Nc3ccnc(C(F)(F)F)c3)nc(-c3cccc(C(F)(F)F)n3)n2)C1 [Example 22B, (S)-4-(3-trifluoromethyl-3-hydroxypyrrolidin-1-yl)-6-(6-(trifluoromethyl)pyridin-2-yl)-N-(2-(trifluoromethyl)pyridin-4-yl)-1,3,5-triazin-2-amine] | −2
